Test results as given in US12465652B2 (AMGEN INC., priority 2017, dated 2025).
pEC50: −log10 of the molar value.

The chains behind the UniProt entries cited, without tags or fusion partners. Residues count along the entry.
UniProt P43220, 24-463 limits assumed: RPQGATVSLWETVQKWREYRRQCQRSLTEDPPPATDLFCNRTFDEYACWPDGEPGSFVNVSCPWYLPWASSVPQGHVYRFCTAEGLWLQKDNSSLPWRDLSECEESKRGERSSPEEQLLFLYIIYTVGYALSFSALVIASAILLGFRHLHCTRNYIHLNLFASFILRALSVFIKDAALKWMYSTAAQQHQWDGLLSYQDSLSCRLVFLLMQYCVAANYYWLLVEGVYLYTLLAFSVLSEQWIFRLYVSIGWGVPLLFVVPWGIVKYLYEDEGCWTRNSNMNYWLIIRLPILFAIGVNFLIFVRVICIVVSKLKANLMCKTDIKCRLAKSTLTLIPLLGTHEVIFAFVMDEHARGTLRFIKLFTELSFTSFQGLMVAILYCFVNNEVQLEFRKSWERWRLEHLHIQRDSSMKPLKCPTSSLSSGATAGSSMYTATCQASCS

Biological target: human GLP-IR (Homo sapiens, UniProt P43220)
Test: GLP1 activity | EC50 (pM)
From the text: Table printed on a drawing sheet, FIG. 1A
Head of the field: GLP1 activity | EC50 (pM)
The patent's description of the figure: FIG. 1A-1B: Synthetic Peptides (FIG. 1A discloses SEQ ID NOS 3948 and 3275-3298 and FIG. 1B discloses SEQ ID NOS 3948 and 3299-3302, all respectively, in order of appearance)
First copying reader's note: The first head row prints a reference sequence (residues at positions 7-35) above the position numbers; two fully empty rows separate groups of peptides.
Where the first naming reader finds the target: passage: CHOK1 cells stably expressing the human GLP-IR were used to measure peptide or recombinant fusion-induced cAMP production

Row | pEC50 | SMILES
1 | 8.86 | CC[C@H](C)[C@H](NC(=O)[C@H](Cc1ccccc1)NC(=O)[C@H](CCC(=O)O)NC(=O)[C@H](CCCCN)NC(=O)[C@H](C)NC(=O)[C@H](C)NC(=O)[C@H](CCC(N)=O)NC(=O)CNC(=O)[C@H](CCC(=O)O)NC(=O)[C@H](CC(C)C)NC(=O)[C@H](Cc1ccc(O)cc1)NC(=O)[C@H](CO)NC(=O)[C@H](CO)NC(=O)[C@@H](NC(=O)[C@H](CC(=O)O)NC(=O)[C@H](CO)NC(=O)[C@@H](NC(=O)[C@H](Cc1ccccc1)NC(=O)[C@@H](NC(=O)CNC(=O)[C@H](CCCNC(=N)N)NC(=O)CNC(=O)[C@@H](N)Cc1c[nH]cn1)[C@@H](C)O)[C@@H](C)O)C(C)C)C(=O)N[C@@H](C)C(=O)N[C@@H](Cc1c[nH]c2ccccc12)C(=O)N[C@@H](CC(C)C)C(=O)N[C@H](C(=O)N[C@@H](CCCCN)C(=O)NCC(=O)O)C(C)C [3166748#1, HGRGTFTSDVSSYLEGQAAKEFIAWLVKG]
2 | 7.01 | CC[C@H](C)[C@H](NC(=O)[C@H](Cc1ccccc1)NC(=O)[C@H](CCC(=O)O)NC(=O)[C@H](CCCCN)NC(=O)[C@H](C)NC(=O)[C@H](C)NC(=O)[C@H](CCC(N)=O)NC(=O)CNC(=O)[C@H](CCC(=O)O)NC(=O)[C@H](CC(C)C)NC(=O)[C@H](Cc1ccc(O)cc1)NC(=O)[C@H](CO)NC(=O)[C@H](CO)NC(=O)[C@@H](NC(=O)[C@H](CC(=O)O)NC(=O)[C@H](CO)NC(=O)[C@@H](NC(=O)[C@H](Cc1ccccc1)NC(=O)[C@@H](NC(=O)[C@H](CCC(=O)O)NC(=O)[C@H](CCC(=O)O)NC(=O)CNC(=O)[C@@H](N)Cc1c[nH]cn1)[C@@H](C)O)[C@@H](C)O)C(C)C)C(=O)N[C@@H](C)C(=O)N[C@@H](Cc1c[nH]c2ccccc12)C(=O)N[C@@H](CC(C)C)C(=O)N[C@H](C(=O)N[C@@H](CCCCN)C(=O)NCC(=O)O)C(C)C [3166968#1, HGEETFTSDVSSYLEGQAAKEFIAWLVKG]
3 | 8.45 | CC[C@H](C)[C@H](NC(=O)[C@H](Cc1ccccc1)NC(=O)[C@H](CCC(=O)O)NC(=O)[C@H](CCCCN)NC(=O)[C@H](C)NC(=O)[C@H](C)NC(=O)[C@H](CCC(N)=O)NC(=O)CNC(=O)[C@H](CCC(=O)O)NC(=O)[C@H](CC(C)C)NC(=O)[C@H](Cc1ccc(O)cc1)NC(=O)[C@H](CO)NC(=O)[C@H](CO)NC(=O)[C@@H](NC(=O)[C@H](CC(=O)O)NC(=O)[C@H](CO)NC(=O)[C@@H](NC(=O)[C@H](Cc1ccccc1)NC(=O)[C@@H](NC(=O)[C@H](C)NC(=O)[C@H](CCC(=O)O)NC(=O)CNC(=O)[C@@H](N)Cc1c[nH]cn1)[C@@H](C)O)[C@@H](C)O)C(C)C)C(=O)N[C@@H](C)C(=O)N[C@@H](Cc1c[nH]c2ccccc12)C(=O)N[C@@H](CC(C)C)C(=O)N[C@H](C(=O)N[C@@H](CCCCN)C(=O)NCC(=O)O)C(C)C [3166964#1, HGEATFTSDVSSYLEGQAAKEFIAWLVKG]
4 | 9.37 | CC[C@H](C)[C@H](NC(=O)[C@H](Cc1ccccc1)NC(=O)[C@H](CCC(=O)O)NC(=O)[C@H](CCCCN)NC(=O)[C@H](C)NC(=O)[C@H](C)NC(=O)[C@H](CCC(N)=O)NC(=O)CNC(=O)[C@H](CCC(=O)O)NC(=O)[C@H](CC(C)C)NC(=O)[C@H](Cc1ccc(O)cc1)NC(=O)[C@H](CO)NC(=O)[C@H](CO)NC(=O)[C@@H](NC(=O)[C@H](CC(=O)O)NC(=O)[C@H](CO)NC(=O)[C@@H](NC(=O)[C@H](Cc1ccccc1)NC(=O)[C@@H](NC(=O)CNC(=O)[C@H](CO)NC(=O)CNC(=O)[C@@H](N)Cc1c[nH]cn1)[C@@H](C)O)[C@@H](C)O)C(C)C)C(=O)N[C@@H](C)C(=O)N[C@@H](Cc1c[nH]c2ccccc12)C(=O)N[C@@H](CC(C)C)C(=O)N[C@H](C(=O)N[C@@H](CCCCN)C(=O)NCC(=O)O)C(C)C [3166747#1, HGSGTFTSDVSSYLEGQAAKEFIAWLVKG]
5 | 9.46 | CC[C@H](C)[C@H](NC(=O)[C@H](Cc1ccccc1)NC(=O)[C@H](CCC(=O)O)NC(=O)[C@H](CCCCN)NC(=O)[C@H](C)NC(=O)[C@H](C)NC(=O)[C@H](CCC(N)=O)NC(=O)CNC(=O)[C@H](CCC(=O)O)NC(=O)[C@H](CC(C)C)NC(=O)[C@H](Cc1ccc(O)cc1)NC(=O)[C@H](CO)NC(=O)[C@H](CO)NC(=O)[C@@H](NC(=O)[C@H](CC(=O)O)NC(=O)[C@H](CO)NC(=O)[C@@H](NC(=O)[C@H](Cc1ccccc1)NC(=O)[C@@H](NC(=O)CNC(=O)[C@H](C)NC(=O)CNC(=O)[C@@H](N)Cc1c[nH]cn1)[C@@H](C)O)[C@@H](C)O)C(C)C)C(=O)N[C@@H](C)C(=O)N[C@@H](Cc1c[nH]c2ccccc12)C(=O)N[C@@H](CC(C)C)C(=O)N[C@H](C(=O)N[C@@H](CCCCN)C(=O)NCC(=O)O)C(C)C [3166733#1, HGAGTFTSDVSSYLEGQAAKEFIAWLVKG]
6 | 8.55 | CC[C@H](C)[C@H](NC(=O)[C@H](Cc1ccccc1)NC(=O)[C@H](CCC(=O)O)NC(=O)[C@H](CCCCN)NC(=O)[C@H](C)NC(=O)[C@H](C)NC(=O)[C@H](CCC(N)=O)NC(=O)CNC(=O)[C@H](CCC(=O)O)NC(=O)[C@H](CC(C)C)NC(=O)[C@H](Cc1ccc(O)cc1)NC(=O)[C@H](CO)NC(=O)[C@H](CO)NC(=O)[C@@H](NC(=O)[C@H](CC(=O)O)NC(=O)[C@H](CO)NC(=O)[C@@H](NC(=O)[C@H](Cc1ccccc1)NC(=O)[C@@H](NC(=O)CNC(=O)[C@H](Cc1c[nH]c2ccccc12)NC(=O)CNC(=O)[C@@H](N)Cc1c[nH]cn1)[C@@H](C)O)[C@@H](C)O)C(C)C)C(=O)N[C@@H](C)C(=O)N[C@@H](Cc1c[nH]c2ccccc12)C(=O)N[C@@H](CC(C)C)C(=O)N[C@H](C(=O)N[C@@H](CCCCN)C(=O)NCC(=O)O)C(C)C [3166744#1, HGWGTFTSDVSSYLEGQAAKEFIAWLVKG]
7 | 9.43 | CC[C@H](C)[C@H](NC(=O)[C@H](Cc1ccccc1)NC(=O)[C@H](CCC(=O)O)NC(=O)[C@H](CCCCN)NC(=O)[C@H](C)NC(=O)[C@H](C)NC(=O)[C@H](CCC(N)=O)NC(=O)CNC(=O)[C@H](CCC(=O)O)NC(=O)[C@H](CC(C)C)NC(=O)[C@H](Cc1ccc(O)cc1)NC(=O)[C@H](CO)NC(=O)[C@H](CO)NC(=O)[C@@H](NC(=O)[C@H](CC(=O)O)NC(=O)[C@H](CO)NC(=O)[C@@H](NC(=O)[C@H](Cc1ccccc1)NC(=O)[C@@H](NC(=O)CNC(=O)[C@@H]1CCCN1C(=O)CNC(=O)[C@@H](N)Cc1c[nH]cn1)[C@@H](C)O)[C@@H](C)O)C(C)C)C(=O)N[C@@H](C)C(=O)N[C@@H](Cc1c[nH]c2ccccc12)C(=O)N[C@@H](CC(C)C)C(=O)N[C@H](C(=O)N[C@@H](CCCCN)C(=O)NCC(=O)O)C(C)C [3166745#1, HGPGTFTSDVSSYLEGQAAKEFIAWLVKG]
